Test results taken from article PMC4805779, “The Ascaris suum nicotinic receptor, ACR-16, as a drug target: Four novel negative allosteric modulators from virtual screening” (International Journal for Parasitology: Drugs and Drug …, 2016).

Tested on: C. elegans strain N2
Assay: C. elegans L4 larvae motility (thrashing) in M9 buffer
Type: in vivo, Caenorhabditis elegans

Cl.N#Cc1ccc2c(c1)CCN(CC[C@H]1CC[C@H](NC(=O)c3ccnc4ccccc34)CC1)C2.O [SB-277011-A, SB-277011-A hydrochloride hydrate]
Duration of decreased motility: about 10 min
